The target of the experiment is T1, sst2 receptor in HEK293-rsst2 cells (Rattus norvegicus, UniProt P30680).
T1 construct: expressed in transfected cells; host or cells: HEK293
The experiment can be described thus: Immunofluorescence microscopy-based sst2 internalisation assay. The conditions noted are these: 10 nM, 37 °C, 30 min, HEK-sst2 cells. Type of experiment: cell-based.

Protein sequences, listed by entry. Tags and fused reporters are not part of them. Lines headed by an entry give the natural chain unless they say otherwise; changes in a name come on top.
UniProt P30680: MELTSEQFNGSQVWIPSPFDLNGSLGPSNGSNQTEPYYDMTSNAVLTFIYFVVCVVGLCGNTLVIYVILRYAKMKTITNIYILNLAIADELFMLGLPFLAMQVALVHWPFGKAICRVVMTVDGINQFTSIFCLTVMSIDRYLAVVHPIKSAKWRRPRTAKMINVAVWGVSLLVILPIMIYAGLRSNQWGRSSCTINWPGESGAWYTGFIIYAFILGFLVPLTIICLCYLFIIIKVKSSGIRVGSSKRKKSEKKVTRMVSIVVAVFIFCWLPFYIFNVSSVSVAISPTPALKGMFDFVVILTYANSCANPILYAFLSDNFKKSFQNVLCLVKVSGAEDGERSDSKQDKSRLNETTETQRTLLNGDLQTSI

[Tyr^3]octreotide [TOC]: the “sst2 receptor internalisation (agonist effect)” value was “triggers massive receptor internalisation”.

For the origin of these results see PMC6070450, “The tetraamine chelator outperforms HYNIC in a new technetium-99m-labelled somatostatin receptor 2 antagonist” (EJNMMI Research, 2018).
